Experimental findings from paper PMC6385310 (Scientific Reports, 2019) are described below.

Amino acid sequences for entries named in this document (tags omitted). A change or cut given only in a name is not applied to a line headed by its entry.
UniProt P06401: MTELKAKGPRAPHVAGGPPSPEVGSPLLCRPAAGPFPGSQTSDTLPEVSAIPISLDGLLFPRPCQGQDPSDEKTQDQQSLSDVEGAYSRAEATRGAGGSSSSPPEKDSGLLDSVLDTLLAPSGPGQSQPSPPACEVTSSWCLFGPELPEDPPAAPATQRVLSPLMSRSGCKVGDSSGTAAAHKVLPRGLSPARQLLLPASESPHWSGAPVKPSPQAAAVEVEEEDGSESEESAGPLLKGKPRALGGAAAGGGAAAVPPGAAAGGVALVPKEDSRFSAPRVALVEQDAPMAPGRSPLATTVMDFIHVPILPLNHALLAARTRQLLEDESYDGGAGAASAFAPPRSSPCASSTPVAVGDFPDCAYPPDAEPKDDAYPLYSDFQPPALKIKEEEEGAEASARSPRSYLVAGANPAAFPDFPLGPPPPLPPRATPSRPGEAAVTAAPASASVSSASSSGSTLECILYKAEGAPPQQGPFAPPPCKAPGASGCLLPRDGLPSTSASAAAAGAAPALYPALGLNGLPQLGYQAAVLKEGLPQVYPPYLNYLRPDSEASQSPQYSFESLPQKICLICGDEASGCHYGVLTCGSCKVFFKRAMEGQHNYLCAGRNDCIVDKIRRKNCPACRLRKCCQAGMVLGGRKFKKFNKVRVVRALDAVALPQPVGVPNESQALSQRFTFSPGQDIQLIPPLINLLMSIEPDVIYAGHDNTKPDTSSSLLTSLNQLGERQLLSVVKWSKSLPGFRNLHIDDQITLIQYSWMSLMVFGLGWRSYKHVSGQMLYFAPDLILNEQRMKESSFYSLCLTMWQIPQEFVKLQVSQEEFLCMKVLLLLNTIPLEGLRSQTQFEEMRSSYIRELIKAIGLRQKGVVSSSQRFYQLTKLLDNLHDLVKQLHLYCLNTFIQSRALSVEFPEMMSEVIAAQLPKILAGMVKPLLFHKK

The test deals with progesterone receptor (PR) (Homo sapiens, UniProt P06401). In words: PR antagonism in T-47D cells, qRT-PCR of ORG2058-induced FKBP54 and S100P. The conditions noted are these: 10 nM ORG2058, 24 h; for PR antagonism: inhibition of ORG2058-induced up-regulation of S100P and FKBP54: increasing concentrations of compound; for PR agonist activity: increased expression of S100P and FKBP54: lower concentrations of compound.

In the case of `CC#C[C@]1(O)CC[C@H]2[C@@H]3CCC4=CC(=O)CCC4=C3[C@@H](c3ccc(N(C)C)cc3)C[C@@]21C` [Compound 1, mifepristone, reference compound], the “PR antagonism: inhibition of ORG2058-induced up-regulation of S100P and FKBP54” value (“PR antagonism: inhibition” below) was “strongly inhibited ORG2058-induced up-regulation of S100P and FKBP54 at 100 nM”; the “PR agonist activity: increased expression of S100P and FKBP54” value is listed as “no detectable PR agonistic activity”.

With `CN(C)c1ccc([C@H]2C[C@@]3(C)[C@@H](CC[C@@]3(O)C#C[Si](C)(C)C)[C@@H]3CCC4=CC(=O)CCC4=C32)cc1` [Compound 33], the “PR antagonism: inhibition” value is on record as “reduced PR antagonism, requiring 1 uM for activity”. On the same count and under the same terms, under `COc1ccc(C#C[C@]2(O)CC[C@H]3[C@@H]4CC[C@@]5(O)CC6(CCC5=C4[C@@H](c4ccc(N(C)C)cc4)C[C@@]32C)OCCO6)cc1` [Compound 37] stands “inhibition of S100P and FKBP54 only occurring at 1 µM”. Regarding `COc1ccc(C#C[C@]2(O)CC[C@H]3[C@@H]4CCC5=CC(=O)CCC5=C4[C@@H](c4ccc(N(C)C)cc4)C[C@@]32C)cc1` [Compound 39], the “PR antagonism: inhibition” value is “maximal antagonism of S100P and FKBP54 evident at 10 nM”; the “PR agonist activity: increased expression of S100P and FKBP54” value is on record as “no detectable PR agonistic activity”.
